The values that follow come from paper PMC5522751 (Bioorganic & medicinal chemistry, 2017).

Protein sequences, listed by entry. Tags and fused reporters are not part of them. Lines headed by an entry give the natural chain unless they say otherwise; changes in a name come on top.
UniProt P28072: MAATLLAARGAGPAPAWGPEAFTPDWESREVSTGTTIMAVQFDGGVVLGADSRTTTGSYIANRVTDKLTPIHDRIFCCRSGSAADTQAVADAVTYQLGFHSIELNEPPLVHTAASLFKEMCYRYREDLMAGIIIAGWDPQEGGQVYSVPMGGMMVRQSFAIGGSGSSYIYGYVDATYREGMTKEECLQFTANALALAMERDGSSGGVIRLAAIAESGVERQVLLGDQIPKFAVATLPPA
UniProt Q99436: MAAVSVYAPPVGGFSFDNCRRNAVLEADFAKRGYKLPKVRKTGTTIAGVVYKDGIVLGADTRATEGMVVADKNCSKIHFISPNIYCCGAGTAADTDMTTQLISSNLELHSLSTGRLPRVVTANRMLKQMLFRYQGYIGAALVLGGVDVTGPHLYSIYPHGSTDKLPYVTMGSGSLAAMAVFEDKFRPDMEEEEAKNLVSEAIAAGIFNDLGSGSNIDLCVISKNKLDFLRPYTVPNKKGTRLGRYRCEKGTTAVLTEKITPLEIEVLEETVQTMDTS

For this assay, the target named is human 20S proteasome caspase-like (C-L, β1) site (Homo sapiens, UniProt P28072+Q99436). Kind of assay: Fluorogenic assay for 20S human proteasome inhibition, caspase-like site. In kind it is biochemical.

What is called IC50 is the concentration that gives 50% inhibition. `CCCCCC[C@@H]1C(=O)O[C@H]1C(=O)NCCCC[C@H](NC(=O)[C@H](C)NC(=O)c1ccc(Br)cc1)C(=O)OCc1ccccc1` [compound 20] yielded an IC50 of 2.81 ± 0.24 µM.
The compound `CCCCCC[C@]1(C)C(=O)O[C@H]1C(=O)NCCCC[C@H](NC(=O)[C@H](C)NC(=O)OCc1ccccc1)C(=O)OCc1ccccc1` [compound 25] showed an IC50 of 3.74 ± 0.04 µM.
With `CCCCCC[C@@]1(C)C(=O)O[C@@H]1C(=O)NCCCC[C@H](NC(=O)[C@H](C)NC(=O)OCc1ccccc1)C(=O)OCc1ccccc1` [compound 26], the IC50 stood at 3.98 ± 0.63 µM.
Regarding `CCCCCC[C@@]1(C)C(=O)O[C@H]1C(=O)NCCCC[C@H](NC(=O)[C@H](C)NC(=O)OCc1ccccc1)C(=O)OCc1ccccc1` [compound 27], the IC50 amounted to 3.62 ± 0.08 µM.
